Test results: patent US20220401514A1, “ANTIMICROBIAL, BACTERIOPHAGE-DERIVED POLYPEPTIDES AND THEIR USE AGAINST GRAM-NEGATIVE AND ACID-FAST BACTERIA” (CONTRAFECT CORPORATION, priority 2019, published 2022)

Experiments:
[1] = system: P. aeruginosa strain CFS-1292; assay: Checkerboard assay (FICI) with antibiotics, P. aeruginosa; details: P. aeruginosa CFS-1292, CAA + […] human serum
[2] = system: Acinetobacter baumannii strain 30; assay: Checkerboard assay (FICI) with antibiotics, A. baumannii
[3] = system: Klebsiella pneumoniae strain 1139; assay: Checkerboard assay (FICI) with antibiotics, K. pneumoniae
[4] = checkerboard, in combination with Unp2-M1

SMILES | Antibiotic MIC in checkerboard ([1]; combined with Chp2-M1) | Antibiotic MIC in checkerboard ([1]; combined with Chp2) | Antibiotic MIC in checkerboard ([1]; combined with Chp4-M1) | Antibiotic MIC in checkerboard ([1]; combined with Chp6-M1) | Antibiotic MIC in checkerboard ([1]; combined with Chp10-M1) | Antibiotic MIC in checkerboard ([1]; combined with Unp2-M1) | Antibiotic FIC ([2]; in combination with Chp2) | Antibiotic MIC ([2]; in combination with Chp2) | Antibiotic MIC ([2]; in combination with Unp2-M1) | Antibiotic MIC ([3]; checkerboard, in combination with Chp4-M1) | Antibiotic MIC ([3]; checkerboard, in combination with Chp6-M1) | Antibiotic MIC ([3]; checkerboard, in combination with Chp10-M1) | Antibiotic FIC [3, 4] | Antibiotic MIC [3, 4] | Antibiotic MIC in checkerboard ([3]; combined with Chp2) | Antibiotic MIC in checkerboard ([3]; combined with Chp2-M1) | Antibiotic MIC ([2]; in combination with Chp2-M1) | Antibiotic MIC ([2]; in combination with Chp4-M1) | Antibiotic MIC ([2]; in combination with Chp6-M1) | Antibiotic MIC ([2]; in combination with Chp10-M1)
CC[C@H]1OC(=O)[C@H](C)[C@@H](O[C@H]2C[C@@](C)(OC)[C@@H](O)[C@H](C)O2)[C@H](C)[C@@H](O[C@@H]2O[C@H](C)C[C@H](N(C)C)[C@H]2O)[C@](C)(O)C[C@@H](C)CN(C)[C@H](C)[C@@H](O)[C@]1(C)O [Azithromycin] | 8 µg/mL | 16 µg/mL | 16 µg/mL | 16 µg/mL | 8 µg/mL | 8 µg/mL |  |  |  |  |  |  |  |  |  |  |  |  |  | 
C[C@@H](O)[C@H]1C(=O)N2C(C(=O)O)=C(SCCN=CN)C[C@H]12 [Imipenem] |  |  |  |  |  |  | 0.5 | 0.5 µg/mL | 0.25 µg/mL | 0.0625 µg/mL | 0.0625 µg/mL | 0.0625 µg/mL | 0.0625 | 0.0625 µg/mL | 0.0625 µg/mL | 0.0625 µg/mL |  |  |  | 
C[C@H]1COc2c(N3CCN(C)CC3)c(F)cc3c(=O)c(C(=O)O)cn1c23 [Levofloxacin] |  |  |  |  |  |  |  | 0.03125 µg/mL | 0.0625 µg/mL |  |  |  |  |  |  |  | 0.03125 µg/mL | 0.03125 µg/mL | 0.0625 µg/mL | 0.0625 µg/mL
